Experimental data: US11046696B2, “Fused pyrimidine compound or salt thereof” (TAIHO PHARMACEUTICAL CO., LTD., priority 2016, dated 2021)

The chains behind the UniProt entries cited, without tags or fusion partners. Where a name states a change or a piece, a line headed by the entry shows the natural chain unless it says otherwise.
UniProt P06239: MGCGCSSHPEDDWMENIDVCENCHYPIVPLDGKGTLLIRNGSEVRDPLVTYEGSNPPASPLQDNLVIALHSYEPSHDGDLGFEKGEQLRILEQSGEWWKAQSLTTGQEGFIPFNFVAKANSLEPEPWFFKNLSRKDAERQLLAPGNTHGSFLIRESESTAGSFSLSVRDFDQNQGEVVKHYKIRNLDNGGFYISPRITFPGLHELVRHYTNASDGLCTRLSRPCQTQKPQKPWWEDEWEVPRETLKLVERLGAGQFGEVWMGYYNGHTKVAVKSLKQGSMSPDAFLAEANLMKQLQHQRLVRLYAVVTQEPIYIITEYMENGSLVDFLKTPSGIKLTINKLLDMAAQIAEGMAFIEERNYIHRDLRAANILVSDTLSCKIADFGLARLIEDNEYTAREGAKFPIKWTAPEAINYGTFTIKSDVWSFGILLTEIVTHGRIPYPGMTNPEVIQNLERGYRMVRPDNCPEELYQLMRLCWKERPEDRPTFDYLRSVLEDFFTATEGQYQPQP

How the values were obtained:
[1] = target: recombinant human LCK protein (Homo sapiens (Human), UniProt P06239); assay: LCK inhibitory activity measurement; assay type: biochemical; conditions: selectivity for RET inhibition over LCK
[2] = target: recombinant human SRC protein (Homo sapiens (Human), UniProt P12931); assay: SRC inhibitory activity measurement; assay type: biochemical; conditions: selectivity for RET inhibition over SRC

What does the source list for `Cc1ccc(-c2nn(C(C)(C)C)c3ncnc(N)c23)cc1`?
LCK IC50 (nM)/RET IC50 (nM) [1]: 12; SRC IC50 (nM)/RET IC50 (nM) [2]: 10
